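Where inhibition never reached the appropriate level, the endpoint shown equals the highest concentration tested. Otherwise, values were interpolated linearly from a five-concentration, 48-hour dose response in 96-well plates. At the GI50, growth is halved. Definition used: TGI = concentration required for complete inhibition of growth.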
Assays:
Assay in all cases: inhibition of tumour cell growth, NCI panel, 48 h
786-0 renal = system: 786-0 renal
A549 NSCLC = system: A549 NSCLC
ACHN renal = system: ACHN renal
BT-549 breast = system: BT-549 breast
CAKI-1 renal = system: CAKI-1 renal
CCRF-CEM leukemia = system: CCRF-CEM leukemia
COLO 205 colon = system: COLO 205 colon
DU-145 prostate = system: DU-145 prostate
EKVX NSCLC = system: EKVX NSCLC
HCC-2998 colon = system: HCC-2998 colon
HCT-116 colon = system: HCT-116 colon
HCT-15 colon = system: HCT-15 colon
HL-60(TB) leukemia = system: HL-60(TB) leukemia
HOP-62 NSCLC = system: HOP-62 NSCLC
HOP-92 NSCLC = system: HOP-92 NSCLC
HT29 colon = system: HT29 colon
IGROV1 ovarian = system: IGROV1 ovarian
K-562 leukemia = system: K-562 leukemia
KM12 colon = system: KM12 colon
LOX IMVI melanoma = system: LOX IMVI melanoma
M14 melanoma = system: M14 melanoma
MALME-3M melanoma = system: MALME-3M melanoma
MCF7 breast = system: MCF7 breast
MDA-MB-231 breast = system: MDA-MB-231 breast
MDA-MB-435 = system: MDA-MB-435
MOLT-4 leukemia = system: MOLT-4 leukemia
NCI-H226 lung = system: NCI-H226 lung
NCI-H23 lung = system: NCI-H23 lung
NCI-H460 lung = system: NCI-H460 lung
NCI-H522 lung = system: NCI-H522 lung
NCI/ADR-RES ovarian = system: NCI/ADR-RES ovarian
OVCAR-4 ovarian = system: OVCAR-4 ovarian
OVCAR-5 ovarian = system: OVCAR-5 ovarian
OVCAR-8 ovarian = system: OVCAR-8 ovarian
RPMI-8226 leukemia = system: RPMI-8226 leukemia
SF-268 CNS = system: SF-268 CNS
SF-295 CNS = system: SF-295 CNS
SF-539 CNS = system: SF-539 CNS
SK-MEL-2 melanoma = system: SK-MEL-2 melanoma
SK-MEL-28 melanoma = system: SK-MEL-28 melanoma
SK-MEL-5 melanoma = system: SK-MEL-5 melanoma
SN12C renal = system: SN12C renal
SNB-19 CNS = system: SNB-19 CNS
SNB-75 CNS = system: SNB-75 CNS
SR leukemia = system: SR leukemia
SW-620 colon = system: SW-620 colon
TK-10 renal = system: TK-10 renal
U251 CNS = system: U251 CNS
UACC-257 melanoma = system: UACC-257 melanoma

Cc1c(CN=[N+]=[N-])c(C)c(CN=[N+]=[N-])c(C)c1CN=[N+]=[N-]
GI50 (786-0 renal): 83.2 µM | TGI (786-0 renal): > 100 µM | GI50 (A549 NSCLC): 38 µM | TGI (A549 NSCLC): > 100 µM | GI50 (ACHN renal): > 100 µM | TGI (ACHN renal): > 100 µM | GI50 (BT-549 breast): 35.9 µM | TGI (BT-549 breast): > 100 µM | GI50 (CAKI-1 renal): 40.9 µM | TGI (CAKI-1 renal): > 100 µM | GI50 (CCRF-CEM leukemia): 29.9 µM | TGI (CCRF-CEM leukemia): > 100 µM | GI50 (COLO 205 colon): 41 µM | TGI (COLO 205 colon): > 100 µM | GI50 (DU-145 prostate): 32.6 µM | TGI (DU-145 prostate): > 100 µM | GI50 (EKVX NSCLC): 93.4 µM | TGI (EKVX NSCLC): > 100 µM | GI50 (HCC-2998 colon): 33.2 µM | TGI (HCC-2998 colon): 78 µM | GI50 (HCT-116 colon): 34.8 µM | TGI (HCT-116 colon): > 100 µM | GI50 (HCT-15 colon): 37.8 µM | TGI (HCT-15 colon): > 100 µM | GI50 (HL-60(TB) leukemia): 28.3 µM | TGI (HL-60(TB) leukemia): 88.2 µM | GI50 (HOP-62 NSCLC): 55.6 µM | TGI (HOP-62 NSCLC): > 100 µM | GI50 (HOP-92 NSCLC): 29.4 µM | TGI (HOP-92 NSCLC): > 100 µM | GI50 (HT29 colon): 28.5 µM | TGI (HT29 colon): > 100 µM | GI50 (IGROV1 ovarian): 45.6 µM | TGI (IGROV1 ovarian): > 100 µM | GI50 (K-562 leukemia): 24.8 µM | TGI (K-562 leukemia): > 100 µM | GI50 (KM12 colon): 39.5 µM | TGI (KM12 colon): > 100 µM | GI50 (LOX IMVI melanoma): 37.7 µM | TGI (LOX IMVI melanoma): > 100 µM | GI50 (M14 melanoma): 81.3 µM | TGI (M14 melanoma): > 100 µM | GI50 (MALME-3M melanoma): 57.3 µM | TGI (MALME-3M melanoma): > 100 µM | GI50 (MCF7 breast): 43 µM | TGI (MCF7 breast): > 100 µM | GI50 (MDA-MB-231 breast): 41.2 µM | TGI (MDA-MB-231 breast): > 100 µM | GI50 (MDA-MB-435): 52.4 µM | TGI (MDA-MB-435): > 100 µM | GI50 (MOLT-4 leukemia): 21.5 µM | TGI (MOLT-4 leukemia): 56.4 µM | GI50 (NCI-H226 lung): 36.9 µM | TGI (NCI-H226 lung): > 100 µM | GI50 (NCI-H23 lung): 18.7 µM | TGI (NCI-H23 lung): 56.5 µM | GI50 (NCI-H460 lung): 50.6 µM | TGI (NCI-H460 lung): > 100 µM | GI50 (NCI-H522 lung): 24.2 µM | TGI (NCI-H522 lung): > 100 µM | GI50 (NCI/ADR-RES ovarian): 56.7 µM | TGI (NCI/ADR-RES ovarian): > 100 µM | GI50 (OVCAR-4 ovarian): 44.1 µM | TGI (OVCAR-4 ovarian): > 100 µM | GI50 (OVCAR-5 ovarian): > 100 µM | TGI (OVCAR-5 ovarian): > 100 µM | GI50 (OVCAR-8 ovarian): 40 µM | TGI (OVCAR-8 ovarian): > 100 µM | GI50 (RPMI-8226 leukemia): 54 µM | TGI (RPMI-8226 leukemia): > 100 µM | GI50 (SF-268 CNS): 10.6 µM | TGI (SF-268 CNS): 75.3 µM | GI50 (SF-295 CNS): 56.9 µM | TGI (SF-295 CNS): > 100 µM | GI50 (SF-539 CNS): 66.2 µM | TGI (SF-539 CNS): > 100 µM | GI50 (SK-MEL-2 melanoma): 32.9 µM | TGI (SK-MEL-2 melanoma): > 100 µM | GI50 (SK-MEL-28 melanoma): > 100 µM | TGI (SK-MEL-28 melanoma): > 100 µM | GI50 (SK-MEL-5 melanoma): 18.7 µM | TGI (SK-MEL-5 melanoma): 40.2 µM | GI50 (SN12C renal): 72.6 µM | TGI (SN12C renal): > 100 µM | GI50 (SNB-19 CNS): > 100 µM | TGI (SNB-19 CNS): > 100 µM | GI50 (SNB-75 CNS): 17.8 µM | TGI (SNB-75 CNS): > 100 µM | GI50 (SR leukemia): 46.1 µM | TGI (SR leukemia): > 100 µM | GI50 (SW-620 colon): 33.8 µM | TGI (SW-620 colon): > 100 µM | GI50 (TK-10 renal): > 100 µM | TGI (TK-10 renal): > 100 µM | GI50 (U251 CNS): 57.6 µM | TGI (U251 CNS): > 100 µM | GI50 (UACC-257 melanoma): 83.5 µM | TGI (UACC-257 melanoma): > 100 µM
